Molecular target: T1, caspase-3 (Homo sapiens, UniProt P42574)
T1 construct: In DLD1 colon carcinoma cells in vitro; endogenous in cells; host or cells: DLD1 colon carcinoma cells
T1 sequence (P42574 29-175 limits assumed): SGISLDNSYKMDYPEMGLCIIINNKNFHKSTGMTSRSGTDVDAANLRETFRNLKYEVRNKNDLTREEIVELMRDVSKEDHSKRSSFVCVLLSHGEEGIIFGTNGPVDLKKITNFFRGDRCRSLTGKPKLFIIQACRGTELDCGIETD
T1 sequence (P42574 176-277 limits assumed): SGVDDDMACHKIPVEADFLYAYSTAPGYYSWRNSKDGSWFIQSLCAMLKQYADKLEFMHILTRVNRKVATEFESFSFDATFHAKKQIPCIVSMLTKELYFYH
Assay: AMC-M808 cleavage in DLD1 colon carcinoma cells after TRAIL treatment, time-lapse confocal fluorescence
Assay type: cell-based
Conditions: DLD1 cells preincubated with 50 μM inhibitor for 1 hour before TRAIL
Experimental: FIG. 1 is an image of AMC fluorescence from an imaging agent in DLD1 colon carcinoma cells before (A) and after 2 hour treatment with TNF-related apoptosis-inducing ligand (TRAIL) (B).
The increase in fluorescence due to AMC-M808 cleavage during the first hour following TRAIL treatment was determined to proceed at rate of 5.5 min^−1.
DLD1 cells were seeded in an 8-chamber glass slide at a density of 2×10^4 cells/cm^2 in DMEM containing 10% FBS and allowed to attach overnight. Fluorescent images of the plated cells were acquired using an Olympus FV1000 confocal microscope equipped with an onstage incubation chamber. TRAIL was added to the cells in a 0.5 mL volume of fresh medium at a concentration of 50 ng/mL. Time-lapse microscopy was then immediately initiated with confocal images acquired at a rate of one image every 10 minutes. The cells were maintained at 37° C. in 5% CO2 for the duration of the experiment. […] Fluorescence intensity over time was measured in a representative region-of-interest in each 10-minute image acquired to determine the rate of caspase activity. […] The rate of cleavage following TRAIL addition was fast and fluorescence intensity in the apoptotic cell population increased over time at a rate of 5.5 min^−1 indicating accumulation and retention of the cleaved substrate (FIG. 2).

Substance: DEVD-CHO [reference compound]
- increase in fluorescence intensity of AMC-M808 in the presence of the inhibitor: no net increase
